By UniProt entry, the sequences of proteins in these tests, tags left out. Where a name states a change or a piece, a line headed by the entry shows the natural chain unless it says otherwise. Residues count along the entry.
UniProt P08069, 31-1367 limits assumed: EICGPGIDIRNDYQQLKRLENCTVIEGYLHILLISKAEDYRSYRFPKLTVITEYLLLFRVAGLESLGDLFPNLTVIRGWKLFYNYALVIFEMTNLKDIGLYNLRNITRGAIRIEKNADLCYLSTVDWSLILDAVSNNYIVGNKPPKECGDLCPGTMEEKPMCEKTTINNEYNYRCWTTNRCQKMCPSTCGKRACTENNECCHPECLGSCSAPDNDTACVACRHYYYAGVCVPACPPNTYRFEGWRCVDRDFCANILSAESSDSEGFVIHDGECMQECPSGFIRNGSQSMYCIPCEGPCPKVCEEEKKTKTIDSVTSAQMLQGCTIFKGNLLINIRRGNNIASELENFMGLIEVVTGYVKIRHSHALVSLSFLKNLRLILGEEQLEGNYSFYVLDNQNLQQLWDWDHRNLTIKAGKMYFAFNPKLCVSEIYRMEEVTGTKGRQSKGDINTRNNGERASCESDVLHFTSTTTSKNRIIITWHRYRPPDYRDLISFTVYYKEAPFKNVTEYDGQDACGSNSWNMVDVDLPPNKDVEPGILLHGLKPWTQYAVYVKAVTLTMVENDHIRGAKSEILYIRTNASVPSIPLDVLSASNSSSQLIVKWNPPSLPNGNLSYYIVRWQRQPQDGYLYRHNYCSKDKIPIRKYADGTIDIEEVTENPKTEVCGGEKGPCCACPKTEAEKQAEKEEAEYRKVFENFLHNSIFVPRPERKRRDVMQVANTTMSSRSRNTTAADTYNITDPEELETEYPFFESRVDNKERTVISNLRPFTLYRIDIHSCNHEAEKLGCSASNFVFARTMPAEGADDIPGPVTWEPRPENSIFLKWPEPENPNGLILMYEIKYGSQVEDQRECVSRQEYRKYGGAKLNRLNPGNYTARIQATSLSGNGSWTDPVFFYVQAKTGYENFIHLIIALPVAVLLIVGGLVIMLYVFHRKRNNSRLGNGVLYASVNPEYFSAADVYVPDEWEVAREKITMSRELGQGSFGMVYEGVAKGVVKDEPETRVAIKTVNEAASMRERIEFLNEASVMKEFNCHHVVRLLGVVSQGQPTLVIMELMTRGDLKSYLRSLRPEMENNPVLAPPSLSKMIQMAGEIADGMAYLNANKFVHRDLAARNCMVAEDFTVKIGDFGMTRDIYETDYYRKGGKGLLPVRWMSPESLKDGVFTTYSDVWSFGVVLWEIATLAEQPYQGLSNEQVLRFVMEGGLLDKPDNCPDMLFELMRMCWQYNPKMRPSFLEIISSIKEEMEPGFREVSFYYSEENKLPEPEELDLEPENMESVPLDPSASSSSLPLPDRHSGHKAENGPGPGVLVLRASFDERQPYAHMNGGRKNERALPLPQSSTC
UniProt Q06187, whole entry: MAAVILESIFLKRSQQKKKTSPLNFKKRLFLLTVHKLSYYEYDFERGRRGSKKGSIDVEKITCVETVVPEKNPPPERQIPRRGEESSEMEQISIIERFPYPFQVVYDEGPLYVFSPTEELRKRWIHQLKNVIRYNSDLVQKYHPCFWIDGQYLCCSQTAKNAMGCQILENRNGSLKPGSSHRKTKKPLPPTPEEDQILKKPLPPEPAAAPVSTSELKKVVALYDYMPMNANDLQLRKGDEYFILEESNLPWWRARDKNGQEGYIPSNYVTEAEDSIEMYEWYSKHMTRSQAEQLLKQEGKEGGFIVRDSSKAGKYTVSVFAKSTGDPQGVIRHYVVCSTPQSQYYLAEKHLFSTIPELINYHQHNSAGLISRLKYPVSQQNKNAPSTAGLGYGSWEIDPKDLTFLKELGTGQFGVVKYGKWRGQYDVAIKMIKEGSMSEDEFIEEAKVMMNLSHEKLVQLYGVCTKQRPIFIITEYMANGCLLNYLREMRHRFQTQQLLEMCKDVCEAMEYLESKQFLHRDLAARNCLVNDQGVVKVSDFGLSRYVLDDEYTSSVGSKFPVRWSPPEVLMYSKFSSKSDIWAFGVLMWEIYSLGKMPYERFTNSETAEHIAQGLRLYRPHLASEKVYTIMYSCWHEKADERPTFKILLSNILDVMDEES
UniProt Q06187, whole entry C481S: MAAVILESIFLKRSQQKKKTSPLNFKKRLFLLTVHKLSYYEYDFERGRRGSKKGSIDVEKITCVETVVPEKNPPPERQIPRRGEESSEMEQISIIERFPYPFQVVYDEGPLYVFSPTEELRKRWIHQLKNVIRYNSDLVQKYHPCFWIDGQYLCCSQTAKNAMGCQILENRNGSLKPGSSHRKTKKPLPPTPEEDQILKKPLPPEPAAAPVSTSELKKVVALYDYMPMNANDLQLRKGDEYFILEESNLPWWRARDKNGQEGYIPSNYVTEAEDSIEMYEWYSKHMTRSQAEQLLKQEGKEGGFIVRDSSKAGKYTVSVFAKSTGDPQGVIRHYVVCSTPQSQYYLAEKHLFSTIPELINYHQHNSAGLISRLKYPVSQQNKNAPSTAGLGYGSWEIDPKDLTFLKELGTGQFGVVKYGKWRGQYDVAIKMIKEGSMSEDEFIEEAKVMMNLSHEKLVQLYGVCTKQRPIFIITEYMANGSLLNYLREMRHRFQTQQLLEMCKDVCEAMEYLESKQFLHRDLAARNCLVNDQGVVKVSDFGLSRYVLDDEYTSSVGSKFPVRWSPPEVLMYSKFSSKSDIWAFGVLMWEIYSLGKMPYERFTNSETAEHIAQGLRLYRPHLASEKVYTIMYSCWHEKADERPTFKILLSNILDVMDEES
UniProt P42680, whole entry: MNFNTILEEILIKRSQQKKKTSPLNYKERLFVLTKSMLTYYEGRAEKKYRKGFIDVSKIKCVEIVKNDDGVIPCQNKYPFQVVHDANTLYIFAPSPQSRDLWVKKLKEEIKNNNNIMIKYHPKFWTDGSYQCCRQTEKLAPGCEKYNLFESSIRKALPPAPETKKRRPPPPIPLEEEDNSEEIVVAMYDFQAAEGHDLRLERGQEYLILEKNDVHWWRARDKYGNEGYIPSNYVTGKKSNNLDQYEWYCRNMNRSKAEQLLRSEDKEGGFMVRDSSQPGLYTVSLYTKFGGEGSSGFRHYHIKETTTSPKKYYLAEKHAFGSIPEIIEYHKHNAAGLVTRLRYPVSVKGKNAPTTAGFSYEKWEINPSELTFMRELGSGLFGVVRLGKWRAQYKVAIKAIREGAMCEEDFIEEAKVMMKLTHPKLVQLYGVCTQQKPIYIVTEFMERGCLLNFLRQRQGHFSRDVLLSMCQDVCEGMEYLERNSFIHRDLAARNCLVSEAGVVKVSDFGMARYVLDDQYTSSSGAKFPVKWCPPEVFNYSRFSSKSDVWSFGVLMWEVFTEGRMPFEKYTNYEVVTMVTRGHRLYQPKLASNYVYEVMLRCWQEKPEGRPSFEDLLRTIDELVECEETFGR

According to patent publication US20260382605A1, “REVERSIBLE MACROCYCLIC KINASE INHIBITORS” (published 2026):

Tests used:
IGFR1 = IGFR1 (Homo sapiens, UniProt P08069); experiment: Binding kinetics assay (surface plasmon resonance) IGFR1; conditions: IGFR1, SPR, 22 °C
Procedure: (§1) Binding Kinetics Assay wt-BTK, BTK C481S, LCK, FGFR1, FLT3, PDGFR-β, FMS, LYN, MEK1, AUR-B. ITK. VEGFR, EGFR, FGFR3, AXL, c-MET, SRC, YES, ABL, RET and IGFR1 (Surface Plasmon Resonance)
(§2) Streptavidin-coated chips (Cat. No. BR100531), disposables and maintenance kits for Biacore were purchased from Cytiva (Eindhoven, The Netherlands). […] The kinetic constants of the compounds were determined with single cycle kinetics with five consecutive injections with an increasing compound concentration with ranges of 3.16-316 nM. […] The SPR sensorgrams were analyzed with Biacore Evaluation Software by using a method of double referencing. […] Target residence time (τ) for the 1:1 binding model was calculated from the dissociation constant kd with the formula T=1/kd. Target residence for an induced fit model was calculated as described (Tummino and Copeland, 2008).

BTK (Act) = BTK (Act) (Homo sapiens, UniProt Q06187); experiment: Binding kinetics assay (surface plasmon resonance) wt-BTK; conditions: SPR, 22 °C
Description: as §1
Streptavidin-coated chips (Cat. No. BR100531), disposables and maintenance kits for Biacore were purchased from Cytiva (Eindhoven, The Netherlands). Biotinylated wt-BTK enzym (Carna Biosciences, cat. no. 08-480-20N), BTK C481S (Carna Biosciences, cat. no. 08-417-20N), LCK (Carna Biosciences, cat. no. 08-470-20N), FGFR1 (Carna Biosciences, cat. no. 08-435-20N), FLT3 (Carna Biosciences, cat. no. 08-454-20N), PDGFR-β (Carna Biosciences, cat. no. 08-458-20N), FMS (Carna Biosciences, cat. no. 08-455-20N), LYN (Carna Biosciences, cat. no. 08-471-20N), MEK1 (Carna Biosciences, cat. no. 07-441-10-20N), AUR-B (Carna Biosciences, cat. no. 05-402-21N), ITK (Carna Biosciences, cat. no. 08-481-20N), VEGFR (Carna Biosciences, cat. no. 08-491-20N), EGFR (Carna Biosciences, cat. no. 08-415-20N), FGFR3 (Carna Biosciences, cat. no. 08-433-20N), AXL (Carna Biosciences, cat. no. 08-407-20N), c-MET (Carna Biosciences, cat. no. 08-451-20N), SRC (Carna Biosciences, cat. no. 08-473-20N), YES (Carna Biosciences, cat. no. 08-475-20N), ABL (Carna Biosciences, cat. no. 08-401-20N), RET (Carna Biosciences, cat. no. 08-459-20N) or IGFR1 (Carna Biosciences, cat. no. 08-441-20N) were immobilized on a streptavidin-coated chip to a level of about 8000 resonance units (RU) using Biacore buffer (50 mM Tris pH 7.5, 0.05% (v/v) Tween-20, 150 mM NaCl and 5 mM MgCl2)+1 mM TCEP. Remaining streptavidin was blocked with biocytin. Immobilization was performed at 4 °C. Subsequent assay steps were conducted at 22 °C. After changing buffer to Biacore buffer with 1% (v/v) dimethylsulfoxide (DMSO), a pre-run was performed for a period of at least 30 min at a flow rate of 30 μl/min to obtain a stable surface. The kinetic constants of the compounds were determined with single cycle kinetics with five consecutive injections with an increasing compound concentration with ranges of 3.16-316 nM. Experiments were performed with an association time of 100 s per concentration and a dissociation time of 1200 s, except for compounds with a long target residence time, such as irreversible inhibitors, where dissociation time was increased. To circumvent problems of mass transport limitation, a flow rate of 30 μl/min was used. A blank run with the same conditions was performed before the compound was injected. The SPR sensorgrams were analyzed with Biacore Evaluation Software by using a method of double referencing. First the reference channel was subtracted from the channel containing immobilized protein. Subsequently, the reference curve obtained with buffer injections was subtracted. The resulting curve was fitted with a 1:1 binding model. Compounds that bound according to an induced fit model were fitted with a two-state reaction model. The kinetic constants (ka, […], KD) of duplicates were geometrically averaged. Target residence time (τ) for the 1:1 binding model was calculated from the dissociation constant kd with the formula T=1/kd. Target residence for an induced fit model was calculated as described (Tummino and Copeland, 2008).

BTK C481S (Act) = BTK C481S (Act) (Homo sapiens, UniProt Q06187, C481S); experiment: Binding kinetics assay (surface plasmon resonance) BTK C481S; conditions: SPR, 22 °C
Procedure: as §1, §2

Tec = Tec (Homo sapiens, UniProt P42680); experiment: Binding kinetics assay TEC (surface plasmon resonance); conditions: SPR, His-tagged TEC on Ni-NTA chip
Procedure: Binding Kinetics Assay TEC (Surface Plasmon Resonance)
An aliquot of N-terminal His-tagged TEC (Eurofins DiscoverX, cat. no. 14-801) was thawed, diluted to 4.8 μg/mL in pre-cooled Biacore buffer (10 mM Tris pH 7.5, 0.05% Tween, 150 mM NaCl and 5 mM MgCl2) and immobilized on a Ni-NTA chip with His-tag capturing, followed by amine-coupling. First, the surface of the chip was first washed for 420 seconds with 0.35 M EDTA, subsequently loaded with 1 mM NiCl for 420 seconds, followed by activation for 1000 seconds with a 1:1 dilution of 0.2 M 1-ethyl-3-(3-dimethylaminopropyl) carbodiimide hydrochloride (EDC) and 50 mM N-hydroxysuccinimide (NHS). His-tagged protein was immobilized on the surface until an immobilization level of 4000 RU was obtained. Remaining active groups on the sensor surface were blocked by injection of 1 M ethanolamine for 420 seconds. The immobilization procedure was performed at 22 °C. Channel 1 was immobilized as described above without injection of His-tagged protein and used as a reference channel to correct for buffer effects, other channels were immobilized as described above. After immobilization, buffer was changed to Biacore buffer containing 1% DMSO. A pre-run was performed for a period of ≥30 min at a flow rate of 30 μL/min until a stable surface was obtained. The kinetic constants of the compounds were determined with single cycle kinetics with five consecutive injections with an increasing compound concentration with ranges of 3.16-316 nM. Experiments were performed with an association time of 100 s per concentration and a dissociation time of 1200 s, except for compounds with a long target residence time, such as irreversible inhibitors, where dissociation time was increased. To circumvent problems of mass transport limitation, a flow rate of 30 μl/min was used. A blank run with the same conditions was performed before the compound was injected. The SPR sensorgrams were analyzed with Biacore Evaluation Software by using a method of double referencing. First the reference channel was subtracted from the channel containing immobilized protein. Subsequently, the reference curve obtained with buffer injections was subtracted. The resulting curve was fitted with a 1:1 binding model. Compounds that bound according to an induced fit model were fitted with a two-state reaction model. The kinetic constants (ka, […], KD) of duplicates were geometrically averaged. Target residence time (τ) for the 1:1 binding model was calculated from the dissociation constant kd with the formula T=1/kd. Target residence for an induced fit model was calculated as described (Tummino and Copeland, 2008).

[1] = tested on: REC-1 mantle cell lymphoma cells; experiment: Cell proliferation assay REC-1; conditions: read-out: IC50 value, REC-1 cells, 120 hours

Compound: COc1cc(-c2ccccc2)nc2cc(-c3nn4c5c(cnc(N)c35)/C=C/CCCCCC(=O)N[C@@H]3CCC[C@@H]4C3)ccc12
- Kd (IGFR1): 5 to 50 nM

Compound: C[C@@H]1CC(=O)N[C@@H]2CCC[C@H](C2)n2nc(-c3ccc(C(=O)Nc4cc(C(F)(F)F)ccn4)cc3)c3c(N)ncc(c32)/C=C/CN1C
- Target residence time Tau (τ) (BTK (Act)): B (τ between 1 and 3 h)
- Target residence time Tau (τ) (BTK C481S (Act)): A (τ between 0.2 h and 1 h)
- Kd (Tec): < 5 nM
- Target residence time Tau (τ) (Tec): A (τ between 0.2 h and 1 h)
- IC50 [1]: < 50 nM

Compound: COc1ccc(F)cc1C(=O)NCc1ccc(-c2nn3c4c(cnc(N)c24)/C=C/CCCCCC(=O)N[C@H](C)CC3)cc1
- Target residence time Tau (τ) (BTK (Act)): B (τ between 1 and 3 h)
- Target residence time Tau (τ) (BTK C481S (Act)): B (τ between 1 and 3 h)
- IC50 [1]: < 50 nM
